Test results from patent US4900730A, “Preparation which promotes the absorption of peptides” (priority 1981, dated 1990).

Assay: Rectal circulation: Cephalothin disappeared by absorption (Examples 10-14, 16-18)
Conditions: for Cephalothin disappeared by absorption, Osmotic pressure (%) X 4 / Cephalothin disappeared by absorption, Osmotic pressure (%) X 1: promoter 0.1% W/V, 0.1% W/V Cephalothin.Na
Method: The experiments were conducted similarly as in Example 1. […] Each sample was diluted and the quantity of Cephalothin disappeared was determined by UV-spectrophotometer of high-speed liquid chromatography.

[1] = Table 4, four-fold tonic, after one hour
[2] = Table 4, isotonic, after one hour

Compound: CCOC(=O)CC(C)=O [Ethylacetoacetate]
- Cephalothin disappeared by absorption, Osmotic pressure X 4 (Table 10, diketo-compounds, Example 10 repeated, four-fold tonic): 26.7 percents
- Cephalothin disappeared by absorption, Osmotic pressure X 1 (Table 10, diketo-compounds, Example 10 repeated, isotonic): 14.6 percents
- Cephalothin disappeared by absorption, Osmotic pressure X 2 (Table 10, diketo-compounds, Example 10 repeated, two-fold tonic): 20.2 percents

Compound: NC(C(=O)O)c1ccccc1 (racemic) [DL-phenylglycine]
- Cephalothin disappeared by absorption, Osmotic pressure X 1 (rat, in vivo): 11.5 percents
- Cephalothin disappeared by absorption, Osmotic pressure X 2 (rat, in vivo): 19.8 percents

Compound: O=C(O)CC(=O)O [Malonic acid, malonic acid]
- Cephalothin disappeared by absorption, Osmotic pressure (%) X 4 [1]: 13.0%
- Cephalothin disappeared by absorption, Osmotic pressure (%) X 1 [2]: 4.5%

Compound: O=C(O)CCC(=O)C(=O)O [α-ketoglutaric acid]
- Cephalothin disappeared by absorption, Osmotic pressure (%) X 1 (Table 5, isotonic, one hour): 7.1%

Compound: O=C(O)CN(CC(=O)O)CC(=O)O [Nitrilotriacetic acid, nitrilotriacetic acid]
- Cephalothin disappeared by absorption, Osmotic pressure (%) X 4 [1]: 10.4%
- Cephalothin disappeared by absorption, Osmotic pressure (%) X 1 [2]: 4.4%
